Consider two compounds from US20050288222A1, “Methods for enhancing the bioavailability of a drug” (priority 2000, published 2005).

Protein sequences, listed by entry. Tags and fused reporters are not part of them. Residues count along the entry.
UniProt P05067, 672-711 limits assumed: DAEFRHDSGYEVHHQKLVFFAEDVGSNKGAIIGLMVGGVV

The target in this assay is B-amyloid (Homo sapiens, UniProt P05067). Description: KD of potent B-amyloid aggregation inhibitors (Table II). The class given is binding.

By Kd is commonly meant a measure of binding affinity in units of concentration. Regarding `CC(C)C[C@@H](N)C(=O)N[C@@H](C(=O)N[C@H](Cc1ccccc1)C(=O)NNC(=O)[C@@H](Cc1ccccc1)NC(=O)[C@H](NC(=O)[C@H](N)CC(C)C)C(C)C)C(C)C` [PPI-1125, (H-lvf-NH-)2], the Kd stood at 1.27 nM. With `CC(C)C[C@H](C(=O)N[C@@H](C(=O)N[C@H](Cc1ccccc1)C(=O)N[C@H](Cc1ccccc1)C(=O)N[C@H](CC(C)C)C(N)=O)C(C)C)N(C)C` [PPI-1007, (CH3)2-lvffl-NH2] the figure was 0.86 nM.
